Data reported in publication PMC3968527, “Dynamic mass redistribution analysis of endogenous β-adrenergic receptor signaling in neonatal rat cardiac fibroblasts” (Pharmacology Research & Perspectives, 2014).

Test system: EGFR in NRCF
Assay: EGFR-dependent DMR response to EGF in NRCF
Type: cell-based, rat
Details: Gef 1 μmol/L, 30 min; EGF 1 nmol/L

COc1cc2ncnc(Nc3ccc(F)c(Cl)c3)c2cc1OCCCN1CCOCC1 [Gef, gefitinib] was tested, and the “effect on EGF-dependent DMR response” value was “completely blocks”.
